Measured values: patent publication US11648295B2, “Methods of treating diseases resulting from a maladapted stress response” (Cortene Inc., priority 2016, dated 2023)

By UniProt entry, the sequences of proteins in these tests, tags left out. Residues count along the entry.
UniProt P34998, 24-415 limits assumed: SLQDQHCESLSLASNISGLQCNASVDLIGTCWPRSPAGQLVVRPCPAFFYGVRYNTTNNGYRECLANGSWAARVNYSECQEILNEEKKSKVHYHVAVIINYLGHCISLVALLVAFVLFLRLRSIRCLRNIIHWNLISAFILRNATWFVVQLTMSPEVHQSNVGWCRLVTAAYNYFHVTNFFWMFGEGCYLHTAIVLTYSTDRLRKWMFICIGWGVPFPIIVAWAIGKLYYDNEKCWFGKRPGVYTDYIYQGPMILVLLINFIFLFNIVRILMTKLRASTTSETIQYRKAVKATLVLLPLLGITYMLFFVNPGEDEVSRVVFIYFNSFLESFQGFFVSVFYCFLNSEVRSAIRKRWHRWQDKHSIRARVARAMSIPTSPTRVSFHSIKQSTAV

Legend:
[1] = biological target: T1, CRFR2 (Homo sapiens, UniProt Q13324); experiment: in vitro potency / binding potential for CRFR2 (table of FIG. 10); type: biochemical
T1 sequence (Q13324 1-411): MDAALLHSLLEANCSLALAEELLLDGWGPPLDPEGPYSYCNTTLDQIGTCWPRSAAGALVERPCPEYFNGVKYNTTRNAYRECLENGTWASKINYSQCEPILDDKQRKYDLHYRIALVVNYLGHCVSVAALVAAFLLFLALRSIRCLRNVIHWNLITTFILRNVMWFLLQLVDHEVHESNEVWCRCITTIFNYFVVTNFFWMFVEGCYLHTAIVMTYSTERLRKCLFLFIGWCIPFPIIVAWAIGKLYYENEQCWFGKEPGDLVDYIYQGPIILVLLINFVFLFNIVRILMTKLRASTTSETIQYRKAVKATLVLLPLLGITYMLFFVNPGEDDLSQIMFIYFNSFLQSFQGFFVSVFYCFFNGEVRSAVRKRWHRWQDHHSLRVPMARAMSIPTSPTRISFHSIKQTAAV

[2] = test system: male Sprague Dawley rats; experiment: Example 5: stress hormones in venous blood after s.c. bolus; type: in vivo, rat; details: normal rats
[3] = test system: male and female Sprague Dawley rats; experiment: Example 7: heart rate, blood pressure, temperature versus plasma concentration, s.c. bolus versus continuous infusion; type: in vivo, rat; details: for effect of escalating plasma concentrations on heart rate, blood pressure, body temperature: regardless of duration of dosing; for effect on heart rate, blood pressure, body temperature: intermediate plasma levels (~1 to ~11 ng/ml)
Source text: The magnitude of the induced changes in heart rate, blood pressure and body temperature in FIGS. 7A, 7B and 7C, likely resulted from the balance between direct agonist effect (dependent upon the concentration of the CRFR2 agonist) and the loss of agonist effect, both via metabolism (reducing the concentration of the agonist) as well as CRFR2 endocytosis (reducing the availability of the receptor). […] Thus for the specific agonist (CT38) and route of administration (subcutaneous) in Example 7, for a given agonist concentration at the receptor, differences between bolus and infused dosing were attributable solely to the duration of CRFR2 stimulation.
The heart rate under stress (but not the tonic regulation) is modulated by CRFR2 in the BNST. […] Thus, the lowest concentration of a 24-hour subcutaneous infusion of CT38 that caused CRFR2 endocytosis in the BNST of rats (i.e., where the curve for continuous dosing passes through the point of maximum heart rate decrease) was ˜1.0-2.0 ng/ml of sustained stimulation in rats, or a human equivalent of 1.1-1.6 ng/ml (based on pharmacokinetic-pharmacodynamic modeling, using human data from Example 9). The lowest concentration of a subcutaneous bolus of CT38 to induce CRFR2 endocytosis in the BNST of rats (i.e., where the curve for instantaneous dosing passes through the point of maximum heart rate increase) was 20.0 ng/ml (or a human equivalent of ˜3.2 ng/ml based on pharmacokinetic-pharmacodynamic modeling, using human data from Example 9), but only after inducing unacceptable changes in heart rate, blood pressure and body temperature.
Body temperature is controlled by the release of 5HT in the medial preoptic area of the hypothalamus, specifically involving post-synaptic 5HT2 receptors and presynaptic 5HT1A receptors. FIG. 7C identifies the lowest concentration of a 24-hour subcutaneous infusion of CT38 that caused CRFR2 endocytosis in the medial preoptic area of the hypothalamus of rats (i.e., where the curves for instantaneous and continuous dosing separate) was ˜1.0-3.0 ng/ml of sustained stimulation in rats, or a human equivalent of 1.1-1.9 ng/ml (based on pharmacokinetic-pharmacodynamic modeling, using human data from Example 9). The lowest concentration of a subcutaneous bolus of CT38 to induce CRFR2 endocytosis in the medial preoptic area of the hypothalamus of rats (i.e., where the curve for instantaneous dosing approaches the minimum temperature) was 20.0 ng/ml (or a human equivalent of ˜3.2 ng/ml based on pharmacokinetic-pharmacodynamic modeling, using human data from Example 9), but only after inducing intolerable changes in heart rate, blood pressure and body temperature.

[4] = test system: female Sprague Dawley rats; experiment: Example 8: escalating continuous s.c. infusion, telemetry of heart rate and blood pressure; type: in vivo, rat
Source text: The heart rate data of FIG. 8A further emphasized that sustained stimulation of CRFR2 (via continuous infusion) reduced the ability of a CRFR2 agonist to induce a heart rate increase, but in a progressive, time-dependent manner.

[5] = Example 9: Phase 1 single ascending dose trial, s.c. bolus; type: in vivo, human; details: male, plasma, sc, healthy human subjects
Experimental: (§1) In a Phase 1 human single ascending dose clinical trial (2005051), CT38s was dosed by subcutaneous injection (bolus) in cohorts of human subjects (each cohort receiving the same dose; rising dose across cohorts). The purpose of this trial was to determine the maximum tolerated bolus dose of CT38s in healthy human subjects.

[6] = test system: healthy human subjects; experiment: as above; type: in vivo; details: instantaneous (bolus) plasma concentration, healthy humans, FIG. 10
Experimental: as §1

[7] = Pharmacokinetic Parameters
Source text: (§2) Table printed on a drawing sheet, FIGURE 10
(§3) Title: Pharmacokinetic Parameters
(§4) Footnotes: FIGURE 10: Effect of maximum or steady state plasma concentrations (Cmax or Css) of various CRFR2 agonists (CT38, SCP or Ucn2), dosed by subcutaneous bolus (triangles) or intravenous infusion (circles), on the maximum heart rate (HRmax) in healthy subjects (solid lines) or stable congestive heart failure patients (dashed lines). The table provides comparative pharmacokinetic parameters for the CRFR2 agonists.
(§5) That is, for strongly potent CRFR2 agonists and relative intermediate plasma concentrations, the loss of the ability to induce a heart rate increase via continuous dosing, was driven by the duration of dosing, and appeared to occur with different selective CRFR2 agonists (e.g., Ucn2, stresscopin), irrespective of the condition of the human subject.
First reader's note: Each EC50 cell holds the EC50 in nmol with the % of Emax in brackets after it.

[8] = in vivo; details: both, Sprague Dawley, rat, plasma, sc
[9] = biological target: CRFR1 (Homo sapiens, UniProt P34998); experiment: EC50, nmol (% of Emax) | CRFR1
Source text: as §2, §3
Head of the field: EC50, nmol (% of Emax) | CRFR1
as §4, §5
First copying reader's note: Each EC50 cell holds the EC50 in nmol with the % of Emax in brackets after it.
Where the first naming reader finds the target: head: EC50, nmol (% of Emax) | CRFR1

[10] = pharmacokinetic-pharmacodynamic modeling using human data from Example 9

SMILES: CC[C@H](C)[C@H](NC(=O)[C@@H](NC(=O)[C@H](CC(=O)O)NC(=O)[C@H](CC(C)C)NC(=O)[C@H](CC(C)C)NC(=O)[C@H](CCCNC(=N)N)NC(=O)[C@H](C)NC(=O)[C@H](CC(N)=O)NC(=O)[C@H](CC(N)=O)NC(=O)[C@H](C)NC(=O)[C@H](C)NC(=O)[C@H](CCC(N)=O)NC(=O)[C@H](CCC(N)=O)NC(=O)[C@H](CCCCN)NC(=O)[C@H](CCC(=O)O)NC(=O)[C@H](CCCCN)NC(=O)[C@H](CCC(=O)O)NC(=O)[C@H](CCC(N)=O)NC(=O)[C@H](CCCCN)NC(=O)[C@H](CCC(=O)O)NC(=O)[C@@H](NC(=O)[C@H](CCC(=O)O)NC(=O)[C@@H](NC(=O)[C@@H](NC(=O)[C@H](CCCCN)NC(=O)[C@H](CCCNC(=N)N)NC(=O)[C@H](CC(C)C)NC(=O)[C@H](CC(C)C)NC(=O)[C@H](CCC(N)=O)NC(=O)[C@H](Cc1ccccc1)NC(=O)[C@@H]1CCCN1C(=O)[C@H](CC(C)C)NC(=O)[C@H](CC(=O)O)NC(=O)[C@@H](NC(=O)[C@H](CO)NC(=O)[C@@H](NC(=O)[C@@H]1CCCN1C(=O)[C@@H]1CCCN1C(=O)CNC(=O)[C@@H]1CCC(=O)N1)[C@@H](C)CC)[C@@H](C)CC)C(C)C)[C@@H](C)CC)[C@@H](C)CC)[C@@H](C)O)C(N)=O [CT38]
- potency and pharmacokinetic parameters relative to endogenous Ucn2 [1]: approximately equivalent
- in vitro binding potential for CRFR2 ([1]; table of FIG. 10): maximal, at low concentrations
- effect on corticosterone ([2]; at 2 hours post-dose): significant increases
- effect on norepinephrine ([2]; at 2 hours post-dose): significant increases
- changes in aldosterone [2]: not significant
- changes in epinephrine [2]: not significant
- norepinephrine and corticosterone returning to control values [2]: 4 hours post-dose
- minimum endocytotic concentration (plasma) ([3]; healthy humans, from Example 7): 1.1 to 1.9 ng/mL
- effect of escalating plasma concentrations on heart rate, blood pressure, body temperature ([3]; high plasma levels (~11 ng/ml and above), rats): a loss of the ability to induce an increase in heart rate or a decrease in blood pressure and body temperature
- effect on heart rate, blood pressure, body temperature ([3]; continuous dosing (infusion), rats): resulted in a loss of the ability to induce an increase in heart rate or a decrease in blood pressure or body temperature
- effect on heart rate, blood pressure, body temperature ([3]; instantaneous dosing (bolus), rats): caused an increase in heart rate and a decrease in blood pressure and body temperature
- effect of escalating plasma concentrations on heart rate, blood pressure, body temperature ([3]; low plasma concentrations (~1 ng/ml and below), rats): increased heart rate and decreased blood pressure and body temperature (very slightly)
- human equivalent of lowest bolus concentration inducing CRFR2 endocytosis in the BNST [3, 10]: ~3.2 ng/mL
- human equivalent of lowest bolus concentration inducing CRFR2 endocytosis in the medial preoptic area of the hypothalamus [3, 10]: ~3.2 ng/mL
- human equivalent of lowest infusion concentration causing CRFR2 endocytosis in the BNST [3, 10]: 1.1 to 1.6 ng/mL
- human equivalent of lowest infusion concentration causing CRFR2 endocytosis in the medial preoptic area of the hypothalamus [3, 10]: 1.1 to 1.9 ng/mL
- plasma concentration at which tachycardia was caused by instantaneous (bolus) dosing ([3]; rats): 1.30 ng/mL
- lowest concentration of a s.c. bolus to induce CRFR2 endocytosis in the medial preoptic area of the hypothalamus ([3]; rats, only after intolerable changes in heart rate, blood pressure, body temperature): 20.0 ng/mL
- lowest concentration of a s.c. bolus to induce CRFR2 endocytosis in the BNST ([3]; rats, only after unacceptable changes in heart rate, blood pressure, body temperature): 20.0 ng/mL
- lowest concentration of a 24-hour s.c. infusion that caused CRFR2 endocytosis in the medial preoptic area of the hypothalamus ([3]; rats, sustained stimulation, from body temperature curves FIG. 7C): 1.0 to 3.0 ng/mL
- lowest concentration of a 24-hour s.c. infusion that caused CRFR2 endocytosis in the BNST ([3]; rats, sustained stimulation, from heart rate curve FIG. 7A): 1.0 to 2.0 ng/mL
- tachycardia during infusion ([4]; 30 µg/kg/day, within 4 hours): absence of any observed tachycardia
- receptor resensitization ([4]; 15-day period of sustained stimulation): no evidence to suggest receptor resensitization
- heart rate on escalation to the next dose level ([4]; after 72 hours sustained stimulation per dose level, 30 to 10,000 µg/kg/day s.c. infusion): unable to increase the heart rate to prior levels
- blood pressure or vasodilatory effect under sustained stimulation ([4]; escalating continuous s.c. infusion): not accompanied by a corresponding diminishment of blood pressure or vasodilatory effect
- Cmax ([5]; 0.2 ug/kg, s.c. bolus 0.200 µg/kg): 0.32 ng/mL
- Cmax ([5]; 0.833 ug/kg, s.c. bolus 0.833 µg/kg, read-out: lowest maximum plasma concentration (Cmax) to cause tachycardia (100 beats/minute)): 1.56 ng/mL
- Cmax ([5]; 1.667 ug/kg, s.c. bolus 1.667 µg/kg): 2.46 ng/mL
- effect of plasma concentration on heart rate [6]: induced an increasing effect on the heart rate
- t1/2 (hours) | 30-min IV infusion [7]: 0.7 h
- t1/2 (hours) | subQ bolus [7]: 0.9 h
- Tmax [8]: ~36 min
- EC50, nmol (% of Emax) | CRFR1 [9]: > 1000 (53) nmol (% of Emax)

Read-outs that look alike come from different tables or passages of the source.
